Binding of CDR-mutated scFvs to a peptide of the spike HR2 region

Source: Li et al. 2023 (doi:10.1038/s41467-023-39022-2), MIT Lincoln Laboratory and A-Alpha Bio; data file from the FLAb repository.

Target peptide (SARS-CoV-2 spike, HR2 region): PDVDLGDISGINAS

Each scFv is VH, three GGGGS repeats, VL, as in the parent Ab-14, and differs from it in the CDRs of the heavy chain only.
VH: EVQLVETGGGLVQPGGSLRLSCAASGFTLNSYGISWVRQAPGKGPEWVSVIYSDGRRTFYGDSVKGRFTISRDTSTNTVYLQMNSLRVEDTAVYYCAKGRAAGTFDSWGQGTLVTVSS
VL: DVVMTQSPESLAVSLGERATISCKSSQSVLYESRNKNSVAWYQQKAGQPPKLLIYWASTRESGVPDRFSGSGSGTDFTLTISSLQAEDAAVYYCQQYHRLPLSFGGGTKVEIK

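These sequences belong to a second round, designed from the earlier measurements on random variants of the parent. Several design methods are mixed in this list. The scFvs were displayed on barcoded MATa yeast, the peptide on MATalpha yeast. Binding brings cells together so that they mate, and sequencing counts the barcode pairs among the diploids. A regression on co-assayed BCL2-family reference pairs converts the normalised counts of each replicate to an apparent Kd. Mating was done six times.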

The parent's heavy chain CDRs are GFTLNSYGIS, VIYSDGRRTFYGDSVK, GRAAGTFDS; each variant's own CDRs replace them letter for letter.
Variants here have more than six changes.
The read-out is the apparent dissociation constant on a log10 scale (nM): the lower, the stronger.
Averages over replicates are reported, and they cover detected replicates only.
A pair that was not seen in any replicate is written "no signal"; this usually means weak binding, but a binder can also be missed.
Background: pairings of all heavy chain designs with three empty control strains gave a value in 1% of cases (median 2.08, 5th percentile 0.84). Values in that range, when seen in few replicates, are hard to tell from nonspecific mating.

| CDR-H1 | CDR-H2 | CDR-H3 | mean log10 Kd (nM) | detected |
|---|---|---|---|---|
| GFDLNEYGIS | VIYADGLRTSYADSVK | GQLAGTFDQ | -0.30 | 6/6 |
| GFDLDEYGIS | VIYADGCRVFYADTVK | GLLGKLVVV | 0.53 | 6/6 |
| GFDLNEYGIS | VIYADGVRTFYTDSVK | GTFAGTFDV | -0.64 | 6/6 |
| GFDLNEYGIS | VIYADGRRTFYVDDVK | GVNAGTFDE | 0.34 | 2/6 |
| GVDLNSYGIS | VIYSLGRRTFDGDSVK | GRLAGWFNS | no signal | 0/6 |
| GFTLDEYGIS | VIYADGQRTFYADSVK | GEAAGTFDI | -0.02 | 6/6 |
| GFDLNEYGIS | VIYADGKRTAYVDSVK | GNNAGTFDI | -0.63 | 6/6 |
| GFDLNEYGIS | VIYADGMRTAYSDSVK | GNVAGTFVL | -0.40 | 6/6 |
| GFSLDDYGIS | VIYADGRRTMYAESVK | GQIAGSLSN | 0.29 | 6/6 |
| GFDLNEYGIS | VIYADGMRTAYSDDVK | GNVAGTFDQ | -0.22 | 6/6 |
| GFDLNEYGIS | VIYADGSRTAYADNVK | GEVAGTFDL | 0.28 | 6/6 |
| GFDLNEYGIS | VIYADGVRTAYSDSVK | GDNAGTFDV | -0.08 | 6/6 |
| GFDINEYGIS | VIYADGMRTAYADSVK | GEAAGTFDS | 0.32 | 6/6 |
| GFDLNEYGIS | VIYADGRRTFYSDSVK | GAVAGTFDQ | -0.76 | 6/6 |
| GFDIDEYGIS | VIYADGMRTFYADSVK | GEAAGTFDA | -0.25 | 6/6 |
| GFDLNEYGIS | VIYADGRRTQYIDSVK | GEQAGTFDV | -0.79 | 6/6 |
| GFNLNEYGIS | VIYADGRRTAYADSVK | GEHAGTFDI | -1.12 | 6/6 |
| GFDLNEYGIS | VIYADGRRTFYSDSVK | GTEGGTFDM | 0.37 | 6/6 |
| GFDLNEYGIS | VIYADGRRTFYADSVK | GNHAGTFDI | no signal | 0/6 |
| GFDLEDYGIS | VIYADGRRTAYIDSVK | GEAAGTFDF | -0.12 | 6/6 |
| GDSLNEYGIS | VIYADGLRSKYADKFK | GQEAGYFDV | no signal | 0/6 |
| GKGLDEYGVS | VIYADGVRKSYVDDVK | GGIAGNFLV | no signal | 0/6 |
| GFNINEYGIS | VIYADGTRTAYANTVK | GKYVDTFVD | 3.54 | 1/6 |
| GFDLNEYGIS | VIYADGRRTAYSDSVK | GGNAGFFDV | no signal | 0/6 |
| GFDLNEYGIS | VIYADGLRTAYSDSVK | GNVAGTFDV | -0.81 | 6/6 |
| GFYLNEYGIS | VIYADGIRSVYANKVK | GNGAGTLDD | no signal | 0/6 |
| GFDLNEYGIS | VIYADGRRTAYSDSVK | GTAGGTFDI | 0.36 | 5/6 |
| GFALNSYGVS | VIYADGRRTFYHDSVK | GRTAGTGDM | no signal | 0/6 |
| GFDLEDYGIS | VIYADGMRTAYADSVK | GNVAGTFDL | 0.01 | 6/6 |
| GFDVEEYGIS | VIYADGRRVAYAKDVK | GMNFDFIVV | no signal | 0/6 |
| GFQIDEYGIS | VIYADGLRAAYSQAVK | GMDTGDFMD | no signal | 0/6 |
| GFDIKEQGIS | VIYADGMRTFYSEKVK | GQNSNGFDM | 0.62 | 6/6 |
| GFDLNEYGIS | VIYADGRRTFYADSVK | GNTAGTFDT | -0.36 | 6/6 |
| GFDLNEYGIS | VIYADGMRTAYADSVK | GQVAGTFDM | -0.75 | 6/6 |
| GFDLNEYGIS | VIYADGVRTAYADSVK | GTNAGTFDV | -0.62 | 6/6 |
| GFDLNEYGVS | VIYADGVRSAYTSSVK | GVGNVDIML | no signal | 0/6 |
| GFDLNEYGIS | VIYADGQRTFYADSVK | GQNAGTFDV | -0.11 | 6/6 |
| GFDLNEYGIS | VIYADGRRKAYADSVK | GNVAGTFDQ | -0.59 | 6/6 |
| GFDLNEYGIS | VIYADGMRTAYANDVK | GNNAGTFDV | -0.72 | 6/6 |
| GFDLENYGIS | VIYADGIRKVYDQSVK | GQMGTTFTV | no signal | 0/6 |
| GFDLNEYGIS | VIYADGKRKAYADSVK | GNVAGTFDL | -0.35 | 6/6 |
| GFDLDEYGIS | VIYADGMRSKYADSVK | GTNGGTIEA | no signal | 0/6 |
| GFDLNEYGIS | VIYADGRRTFYSDSVK | GEAGGTFDM | -0.03 | 6/6 |
| GFDLDEYGIS | VIYADGKRTVYADSVK | GQNAGTFDV | -0.59 | 6/6 |
| GFDLNEYGIS | VIYADGRRTYYADSVK | GNVAGTFDL | -0.71 | 6/6 |
| GFNLDEYGIS | VIYADGQRTAYAKNVK | GTTGMKRVV | no signal | 0/6 |
| GFDLNEYGIS | VIYADGMRTAYVDSVK | GQVAGTFDV | -0.22 | 6/6 |
| GFDLNEYGIS | VIYADGKRTFYSDSVK | GAVAGTFDK | 0.08 | 6/6 |
| GFDLNEYGIS | VIYADGRRTFYADSVK | GEVAGTFIV | 0.13 | 6/6 |
| GFDLNEYGIS | VIYADGQRTFYADSVK | GNVAGTFDM | -0.73 | 6/6 |
| GFDLNEYGIS | VIYADGKRTAYSDSVK | GNVAGTFDA | -0.64 | 6/6 |
| GFDLEEYGIS | VIYADGRRTAYSDSVK | GNVAGTFDV | -0.52 | 6/6 |
| GFDLNEYGIS | VIYADGVRTAYADSVK | GQNAGTFDI | -0.70 | 6/6 |
| GFDLNEYGIS | VIYADGMRTAYSDSVK | GGVAGTFDV | 1.83 | 5/6 |
| GFDLNEYGIS | VIYADGMRTVYADSVK | GENAGTFDV | -0.88 | 6/6 |

From the list, the first 6 with no signal in any replicate:

| CDR-H1 | CDR-H2 | CDR-H3 | mean log10 Kd (nM) | detected |
|---|---|---|---|---|
| GVDLNSYGIS | VIYSLGRRTFDGDSVK | GRLAGWFNS | no signal | 0/6 |
| GFDLNEYGIS | VIYADGRRTFYADSVK | GNHAGTFDI | no signal | 0/6 |
| GDSLNEYGIS | VIYADGLRSKYADKFK | GQEAGYFDV | no signal | 0/6 |
| GKGLDEYGVS | VIYADGVRKSYVDDVK | GGIAGNFLV | no signal | 0/6 |
| GFDLNEYGIS | VIYADGRRTAYSDSVK | GGNAGFFDV | no signal | 0/6 |
| GFYLNEYGIS | VIYADGIRSVYANKVK | GNGAGTLDD | no signal | 0/6 |

The authors averaged sequences with at least three values out of six and counted those with two or fewer as poor binders.
A sequence measured in both rounds can read differently, since the two assays cover different ranges.
Of ten entries with the parent sequence, four were seen in most replicates (averages 0.34 to 2.37), three in one and three in none, so single entries are noisy.